Experimental findings from patent publication US20040136975A1 (priority 2004, published 2004) are described below.

The target in this experiment is MEK1 (Mus musculus, UniProt P31938). Format: cell-based.

The structures appear in SMILES notation.

For the molecule `COc1cccc(-c2cc(=O)c3ccccc3o2)c1N` [PD98059], the “loss of NH2-terminal epitopes of MEK1 (cleavage of intracellular MEK1)” value is given as “not”.
